Assay results reported in patent US8309599B2, “Synthesis of FR901464 and analogs with antitumor activity” (University of Pittsburgh-Of The Commonwealth System of …, priority 2006, dated 2012).

System: multidrug resistant subline VCRd5L
Assay: Antiproliferative activity in multidrug resistant cells
Type: cell-based, Chinese hamster

Question: How did the fold resistance (VCRd5L versus DC3F) turn out when `CC(=O)O[C@@H](C)/C=C\C(=O)N[C@@H]1C[C@H](C)[C@H](C/C=C(C)/C=C/[C@H]2O[C@](C)(O)C[C@@]3(CO3)[C@@H]2O)O[C@@H]1C` [FR901464] was run?
Answer: 13.5 pm

Question: What about the “activity in the multidrug resistant cells” value (in words) of the same compound?
Answer: about an order of magnitude less active
